The term pIC50 denotes the negative decadic logarithm of the IC50, by convention in mol/L.

The chains behind the UniProt entries cited, without tags or fusion partners.
UniProt P45983, whole entry: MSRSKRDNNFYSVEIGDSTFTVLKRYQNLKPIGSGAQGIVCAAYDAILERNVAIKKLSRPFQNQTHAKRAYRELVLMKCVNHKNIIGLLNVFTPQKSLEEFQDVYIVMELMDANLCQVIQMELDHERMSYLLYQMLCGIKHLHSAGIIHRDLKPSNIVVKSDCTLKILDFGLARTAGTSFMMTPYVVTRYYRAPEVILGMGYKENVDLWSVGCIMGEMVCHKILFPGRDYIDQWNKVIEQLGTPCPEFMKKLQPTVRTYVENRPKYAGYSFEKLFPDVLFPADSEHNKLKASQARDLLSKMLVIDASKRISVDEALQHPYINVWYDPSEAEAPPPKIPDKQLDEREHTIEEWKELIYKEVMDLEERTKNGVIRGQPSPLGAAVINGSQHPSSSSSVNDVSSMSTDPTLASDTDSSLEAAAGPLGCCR
UniProt P45984, whole entry: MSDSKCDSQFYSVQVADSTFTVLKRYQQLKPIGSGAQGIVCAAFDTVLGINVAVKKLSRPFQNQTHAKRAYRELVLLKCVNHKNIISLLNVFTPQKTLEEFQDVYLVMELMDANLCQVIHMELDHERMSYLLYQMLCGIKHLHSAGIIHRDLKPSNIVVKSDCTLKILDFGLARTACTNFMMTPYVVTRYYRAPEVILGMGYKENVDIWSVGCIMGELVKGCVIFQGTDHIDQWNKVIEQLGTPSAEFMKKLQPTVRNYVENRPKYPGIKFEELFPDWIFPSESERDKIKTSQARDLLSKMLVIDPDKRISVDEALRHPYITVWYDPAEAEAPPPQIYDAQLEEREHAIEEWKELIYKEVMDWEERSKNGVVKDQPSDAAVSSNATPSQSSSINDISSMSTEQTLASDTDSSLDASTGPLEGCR

Here are results for 9 compounds from patent publication US7951802B2, “Use of 7-azaindoles in the inhibition of c-Jun N-terminal kinase” (Eisai R&D Management Co., Ltd., priority 2007, dated 2011).

pIC50: −log10 of the molar value.

For one test, the system named is TNFα level in plasma. The test is described as follows: LPS-induced TNFα suppression in mice (plasma TNFα, ELISA). The following applies: 20 mg/kg p.o. 30 minutes before LPS 10 mg/kg i.p.; plasma 1 hour after LPS; versus vehicle-treated animals. The protocol: (§1) LPS-Induced TNFα Suppression in Mice
(§2) The studies were carried out in male C57/B16 mice. Compounds (20 mg/kg; p.o.) were administered 30 minutes before injection of lipopolysaccharide (LPS). LPS was administered intraperitoneally at a dose of 10 mg/kg. Animals were sacrificed 1 hour following LPS injection. Blood was collected into heparinized tubes for measurement of plasma TNFα levels and spleens were collected for the measurement of c-Jun phosphorylation. Plasma TNFα was measured using an ELISA kit purchased from R&D systems. Spleens were homogenised, extracted in high salt (250 mM NaCl) lysis buffer with phosphatase inhibitors and c-Jun phosphorylation was measured using HTRF. The suppressive effect of compounds was calculated as the percentage reduction of the TNFα level in plasma and P-c-Jun level in spleen as compared with the vehicle-treated animals.
A general note: ELISA stands for enzyme-linked immunosorbent assay.

Another test has as its system P-c-Jun level in spleen. The test is described as follows: LPS-induced c-Jun phosphorylation in spleen of mice (HTRF). The following applies: 20 mg/kg p.o. 30 minutes before LPS 10 mg/kg i.p.; spleen 1 hour after LPS; versus vehicle-treated animals. The method, then:
as §1, §2
(In general: TR-FRET usually uses a lanthanide donor and a delayed reading to cut background.)

The next test concerns the target JNK1 (Homo sapiens, UniProt P45983). The test is described as follows: JNK1 SPA assay (phosphorylation of GST-c-Jun). Particulars: read-out: JNK1 IC50, 2 μM ATP, GST-c-Jun substrate. The method, then:
(§3) JNK1, JNK2, JNK3—SPA Assay
(§4) JNK1, JNK2, JNK3—SPA Assay • 1. Compound is dissolved in DMSO to a convenient concentration and this is diluted in 10% DMSO to a five times concentrate of the desired starting concentration (frequently 1:100). • 2. 10 μl of 500 mM EDTA is added to alternative wells of the Opti-plate row, which will receive kinase reaction plus DMSO. This creates the negative control. • 3. For the JNK2 and JNK3 assay, compounds are prepared in six 2-fold dilutions with water and each concentration is tested in duplicate. For the JNK1 assay compounds are prepared in four 5-fold dilutions with water which are tested in triplicate. Controls are treated identically. • 4. 20 μl per well of each compound concentration is transferred to an Opti-plate, in duplicate. • 5. 30 μl (JNK2/3 SPA) or 50 μl (JNK1 SPA) of substrate solution (25 mM HEPES pH 7.5, 10 mM magnesium acetate with 3.33 μM ATP (JNK2/3) or 2 μM ATP (JNK1), approximately 7.5 kBq [γ-^33P] ATP, GST-c-Jun, in water) is added to each well. • 6. 50 μl (JNK2/3 SPA) or 30 μl (JNK1 SPA) of kinase solution (JNK in 25 mM HEPES pH 7.5, 10 mM Mg Acetate) is added to each well.
(§5) • 7. The plate is incubated for 30 minutes at room temperature. • 8. 100 μl of bead/stop solution is added to each well (5 mg/ml glutathione-PVT-SPA beads, 40 mM ATP in PBS). • 9. Plates are sealed and incubated for 30 minutes at room temperature, centrifuged for 10 minutes at 2500 g and counted. • 10. The IC50 values are calculated as the concentration of the compound being tested at which the phosphorylation of c-Jun is decreased to 50% of the control value.

The next test has as its target JNK2 (Homo sapiens, UniProt P45984). As to the kind of experiment: JNK2 SPA assay (phosphorylation of GST-c-Jun). Particulars: read-out: JNK2 IC50, 3.33 μM ATP, GST-c-Jun substrate. The protocol: as §3, §4, §5
A further test deals with panel of 100 kinases. The test is described as follows: Selectivity against a panel of kinases (Upstate/Millipore), expressed as Gini coefficient. The following applies: calculated from remaining activity against 100 kinases; compound 1 micromolar, ATP 10 micromolar; 0 = non-selective, 1 = perfect selectivity. The protocol:
Selectivity of Compounds (I) Against a Panel of Kinases
Inhibitory potency of compound (I-8) and (I-60) at a concentration of 1 micromolar and (I-69) and (I-70) at a concentration of 5 micromolar with ATP concentration of 10 micromolar was determined at Upstate/Millipore against a panel of 100 kinases representing all major families within the kinome. The results are presented in Table 3 and are expressed as percentage of remaining activity.
For comparison purposes Table 4 contains the relevant inhibitory data for reference compounds A-L containing a (hetero)aromatic ring at C(5) of the 7-azaindole system.
Selectivity Expressed as Gini Coefficient
Selectivity of compounds according to the present invention and reference compounds expressed as Gini coefficient (J. Med. Chem. 2007, 50, 5773-5779) is shown in Table 5. The individual Gini coefficients have been calculated using the data in Tables 3 and 4. Value Gini=0 corresponds to a totally non-selective compound; value Gini=1 reflects perfect selectivity (inhibition of a single target only)

`CN1CCC(c2nc(-c3c[nH]c4ncc(C5=CCCC5)cc34)cs2)CC1` [Compound I-1, 5-Cyclopent-1-enyl-3-[2-(1-methyl-piperidin-4-yl)-thiazol-4-yl]-1H-pyrrolo[2,3-b]pyridine]: the “Percentage reduction in the level of TNFα” value in the test with TNFα level in plasma is 77%. For the same compound, the “Percentage reduction in the level of P-c-Jun” value in the test on P-c-Jun level in spleen turned out to be 15%. Moreover, the pIC50 on JNK1 is 6.52; on JNK2, 6.08.
On to `CN1CCN(C(=O)c2nc(-c3c[nH]c4ncc(C5=CCCC5)cc34)cs2)CC1` [Compound I-5, [4-(5-Cyclopent-1-enyl-1H-pyrrolo[2,3-b]pyridin-3-yl)-thiazol-2-yl]-(4-methyl-piperazin-1-yl)-methanone], for which the “Percentage reduction in the level of TNFα” value in the test with TNFα level in plasma was 66%. For the same compound, in the test with P-c-Jun level in spleen, the “Percentage reduction in the level of P-c-Jun” value is on record as −32%. Also, the values for the pIC50 at JNK1 and at JNK2 were 6.93 and 6.90, respectively.
On the same counts, the results for `O=C(c1nc(-c2c[nH]c3ncc(C4CCCCC4)cc23)cs1)N1CCCCC1` [Compound I-7, [4-(5-Cyclohexyl-1H-pyrrolo[2,3-b]pyridin-3-yl)-thiazol-2-yl]-piperidin-1-yl-methanone] are 41%, 14%, 6.46 and 6.29.
Regarding `O=C(c1nc(-c2c[nH]c3ncc(C4CCCCC4)cc23)cs1)N1CCOCC1` [Compound I-8, [4-(5-Cyclohexyl-1H-pyrrolo[2,3-b]pyridin-3-yl)-thiazol-2-yl]-morpholin-4-yl-methanone], the “Percentage reduction in the level of TNFα” value with TNFα level in plasma amounted to 21%. For the same compound, the “Percentage reduction in the level of P-c-Jun” value in the test with P-c-Jun level in spleen is reported as 7%. Besides, the Selectivity expressed as Gini coefficient with panel of 100 kinases is 0.493. Besides, the pIC50 at JNK1 was 6.78; at JNK2, 6.67.
Consider `CN(C)C(=O)c1nc(-c2c[nH]c3ncc(C4CCCCC4)cc23)cs1` [Compound I-9, 4-[5-cyclohexyl-1H-pyrrolo[2,3-b]pyridin-3-yl]-thiazole-2-carboxylic acid dimethylamide], for which, in the test with TNFα level in plasma, the “Percentage reduction in the level of TNFα” value was 56%. Further, the “Percentage reduction in the level of P-c-Jun” value in the test with P-c-Jun level in spleen is listed as 20%. For the same compound, the pIC50 on JNK1 was 6.68; on JNK2, 6.71.
On the same counts, the results for `CN1CCN(C(=O)c2nc(-c3c[nH]c4ncc(C5CCCCC5)cc34)cs2)CC1` [Compound I-10, [4-(5-Cyclohexyl-1H-pyrrolo[2,3-b]pyridin-3-yl)-thiazol-2-yl]-(4-methyl-piperazin-1-yl)-methanone] are 47%, 20%, 7.03 and 7.08.
On the same counts, the results for `CC1CC=C(c2cnc3[nH]cc(-c4csc(C(=O)N5CCN(C)CC5)n4)c3c2)CC1` (centres unmarked) [Compound I-14, {4-[5-(4-Methyl-cyclohex-1-enyl)-1H-pyrrolo[2,3-b]pyridin-3-yl]-thiazol-2-yl}-(4-methyl-piperazin-1-yl)-methanone] are 64%, 12%, 6.76 and 6.72.
`CC1(C)C=CC(c2cnc3[nH]cc(-c4csc(C(=O)N5CCOCC5)n4)c3c2)=CC1` [Compound I-16, {4-[5-(4,4-Dimethyl-cyclohexa-1,5-dienyl)-1H-pyrrolo[2,3-b]pyridin-3-yl]-thiazol-2-yl}-morpholin-4-yl-methanone]: the “Percentage reduction in the level of TNFα” value with TNFα level in plasma was found to be 56%. Also, the “Percentage reduction in the level of P-c-Jun” value in the test on P-c-Jun level in spleen turned out to be 32%. Also, the pIC50 on JNK1 was 6.34; on JNK2, 6.18.
Consider `O=C(c1nc(-c2c[nH]c3ncc([C@H]4CC[C@H](N5CCOCC5)CC4)cc23)cs1)N1CCCCC1` [Compound I-33, (4-(5-((1r,4r)-4-morpholinocyclohexyl)-1H-pyrrolo[2,3-b]pyridin-3-yl)thiazol-2-yl)(piperidin-1-yl)methanone], for which the negative logarithm of the IC50 (pIC50) on JNK1 and at JNK2 was 6.68 throughout.
